Results reported in ChEMBL document CHEMBL4145625 (J Med Chem, 2018).

System: NCI-H460
Assay: cells
Type: functional, cell-based
Details: Homo sapiens, NCI-H460, 96 h
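Further: cytotoxicity determined with an MTT assay.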

## COc1ncc(-c2cc(OC3CCOCC3)c3nc(N)nc(C)c3c2)cc1NS(=O)(=O)c1ccc(F)cc1F
  IC50: 29 nM
